The entries are a selection whose mix differs from that of the whole data set. Active and inactive are the calls of the source.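 How the source made its calls: active means mean E-selectin-positive cell signal at least 10% of the positive control, reached in at least 60% of replicates, without over 20% cell loss; inconclusive means no rule given, readout overlaps actives, possibly toxicity-flagged; inactive means the rest, including those meeting only one limit.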

Amino acid sequences for entries named in this document (tags omitted).
UniProt P16581, whole entry: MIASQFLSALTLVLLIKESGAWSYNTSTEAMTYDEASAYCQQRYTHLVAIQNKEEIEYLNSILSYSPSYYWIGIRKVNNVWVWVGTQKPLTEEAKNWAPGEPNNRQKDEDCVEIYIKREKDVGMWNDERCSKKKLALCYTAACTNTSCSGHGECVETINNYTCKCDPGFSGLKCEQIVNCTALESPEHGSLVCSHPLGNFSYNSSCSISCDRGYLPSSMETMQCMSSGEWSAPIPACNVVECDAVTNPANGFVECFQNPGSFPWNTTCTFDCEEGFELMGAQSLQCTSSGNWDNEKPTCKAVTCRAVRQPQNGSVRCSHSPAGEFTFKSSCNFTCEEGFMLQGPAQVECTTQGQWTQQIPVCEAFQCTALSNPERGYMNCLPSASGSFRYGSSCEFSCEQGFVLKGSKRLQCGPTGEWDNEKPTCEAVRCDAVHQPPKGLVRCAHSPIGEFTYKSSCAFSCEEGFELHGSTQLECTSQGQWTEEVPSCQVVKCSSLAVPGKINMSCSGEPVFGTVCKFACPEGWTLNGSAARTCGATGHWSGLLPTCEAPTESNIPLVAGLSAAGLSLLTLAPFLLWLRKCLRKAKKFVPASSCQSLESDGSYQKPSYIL

For this assay, the target named is E-selectin (Homo sapiens) (UniProt P16581). Description: E-selectin induction in HUVECs, primary screen, imaging, HUVEC, immunofluorescence imaging, single point (AID 686992).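 Further: signal is the percent of cells scored E-selectin positive by PE staining.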 The note with it: at 7.58 µM, hits give high values, normalized: neutral wells 0, TNF-alpha wells 100. In outline: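 Assay system: HUVEC, human umbilical vein endothelial cells / Amount: 3,000 HUVEC/well / Controls: TNF-alpha positive control, DMSO neutral control / Compound dosing: single concentration / Medium: EGM-2 over gelatin coat / Evaluation: percent E-selectin-positive cells / Signal: immunofluorescence imaging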
On to `Cc1cccc(NC2(C#N)CCN(Cc3ccccc3)CC2)c1`, for which the activation was inactive: -0.001%. For `COc1ccc(C(=O)NCC2(N3CCCCC3)CCCCC2)c(OC)c1OC` the value was inactive: 5.29%; for `CC(C)(C)OC(=O)N1CCC(N(C(=O)c2ccccc2)c2ccc(F)cc2)CC1`, inactive: -0.172%; for `CCC(c1nnnn1C1CCCC1)N1CCC(n2c(=O)[nH]c3ccccc32)CC1` (centres undefined), inactive: 0.166%. For `CCCCn1nnnc1C(CC)N1CCC(n2c(=O)[nH]c3ccccc32)CC1` (centres undefined) the value was inactive: 0.675%; for `CCCCn1nnnc1C(c1cccs1)N1CCC(n2c(=O)[nH]c3ccccc32)CC1` (centres undefined), inactive: -0.113%; for `O=C(NCC1(N2CCCCC2)CCCCC1)c1ccc(Cl)s1`, inactive: 0.0675%. Under `N#CC1(Nc2ccccc2)CCN(Cc2ccccc2)CC1` stands inactive: -0.002%; under `O=c1[nH]c2ccccc2n1C1CCN(C(c2cc3ccccc3o2)c2nnnn2C2CCCCC2)CC1` (centres undefined), inactive: -0.195%. In the case of `COc1ccc(Cl)cc1C(=O)NCC1(N2CCOCC2)CCCCC1`, the activation was inactive: -0.201%. Under `CCCCn1nnnc1C(c1ccc(OC)cc1)N1CCC(n2c(=O)[nH]c3ccccc32)CC1` (centres undefined) stands inactive: 0.012%; under `O=C(NCC1(N2CCCCC2)CCCCC1)c1ccc(Cl)nc1`, inactive: 0.0465%.

Consider `Cc1cc(C)cc(N(C(=O)c2ccccc2)C2CCN(C(=O)OC(C)(C)C)CC2)c1`, for which the activation is inactive: -0.069%.

As for `CCCCn1nnnc1C(c1cc2ccccc2o1)N1CCC(n2c(=O)[nH]c3ccccc32)CC1` (centres undefined), the activation is inactive: -1.23%. Turning to `O=P1(N(CCCl)CCCl)SCCCS1`, the activation was inactive: -0.097%. On to `CC(C)(C)n1nnnc1C(c1ccccc1)N1CCC(n2c(=O)[nH]c3ccccc32)CC1` (centres undefined), for which the activation was inactive: -0.0705%. Under `CCOc1ccc(C)cc1CN(CCCl)CCCl` stands inactive: -0.0525%. As to `COc1cc(C(=O)NCC2(N(C)C)CCCCC2)ccc1OC(F)F`, the activation is inactive: 0.0375%. Under `O=c1[nH]c2ccccc2n1C1CCN(C(c2ccccc2)c2nnnn2C2CCCCC2)CC1` (centres undefined) stands inactive: 0.164%; under `O=c1[nH]c2ccccc2n1C1CCN(C(c2ccccc2OC(F)(F)F)c2nnnn2C2CCCC2)CC1` (centres undefined), inactive: 0.518%.

Turning to `O=C(NCC1(N2CCCCC2)CCCCC1)c1cccc([N+](=O)[O-])c1`, the activation was inactive: 0.0025%.

Regarding `COc1ccc(NC2CCN(C(=O)OC(C)(C)C)CC2)cc1`, the activation is inactive: -0.01%. As to `O=C(NCC1(N2CCOCC2)CCCCC1)c1cc(F)c(F)cc1Cl`, the activation was inactive: -0.417%.

As for `CCC(c1nnnn1C(C)(C)C)N1CCC(n2c(=O)[nH]c3ccccc32)CC1` (centres undefined), the activation was inactive: -0.095%. Under `CCCCn1nnnc1C(c1ccnc2ccccc12)N1CCC(n2c(=O)[nH]c3ccccc32)CC1` (centres undefined) stands inactive: -0.124%. For `CC(C)c1ccc(NC2CCN(C(=O)OC(C)(C)C)CC2)cc1`, the activation is inactive: 1.07%.

In the case of `CN(C)c1cccc(C(=O)NCC2(N3CCCCC3)CCCCC2)c1`, the activation was inactive: 1.23%. Consider `COc1ccc(C(c2nnnn2C2CCCC2)N2CCC(n3c(=O)[nH]c4ccccc43)CC2)cc1` (centres undefined), for which the activation is inactive: -0.189%. For `Cc1ccc(C(=O)NCC2(N(C)C)CCCCC2)o1` the value was inactive: -0.939%; for `O=C(NCC1(N2CCCCC2)CCCCC1)c1cncc(Br)c1`, inactive: -1.14%.

For the compound `O=c1[nH]c2ccccc2n1C1CCN(C(c2cccs2)c2nnnn2C2CCCCC2)CC1` (centres undefined), the activation is inactive: -0.419%. Take `CCCCn1nnnc1C(c1ccccc1)N1CCC(n2c(=O)[nH]c3ccccc32)CC1` (centres undefined): the activation is inactive: -0.137%. In the case of `COc1cc(C(=O)NCC2(N3CCOCC3)CCCCC2)cc(OC)c1C`, the activation is inactive: 0.527%. For `O=C(NCC1(N2CCOCC2)CCCCC1)c1cc(Br)ccc1Cl` the value was inactive: 0.373%; for `CCCCn1nnnc1C(c1cccc(OC)c1OC)N1CCC(n2c(=O)[nH]c3ccccc32)CC1` (centres undefined), inactive: -0.2%; for `N#Cc1ccc(C(=O)NCC2(N3CCCCC3)CCCCC2)cc1`, inactive: 3.9%. For `CC(C)(C)OC(=O)N1CCC(N(C(=O)c2ccccc2)c2ccc(Cl)cc2)CC1` the value was inactive: 0.022%. For the compound `CC(C)(C)n1nnnc1C(c1cccc2ccccc12)N1CCC(n2c(=O)[nH]c3ccccc32)CC1` (centres undefined), the activation is inactive: -0.461%.

`CN(C)C1(CNC(=O)c2cccc(C#N)c2)CCCCC1`: the activation was inactive: -0.066%. Under `C/C(N)=N\P(=O)(Oc1ccccc1)Oc1ccccc1` stands inactive: 0.294%.

Turning to `O=c1[nH]c2ccccc2n1C1CCN(C(c2ccccc2)c2nnnn2C2CCCC2)CC1` (centres undefined), the activation was inactive: -0.762%. With `Cc1cc(N(CCCl)CCCl)ccc1C=O`, the activation was inactive: 0.114%. For `Cc1ccc(C(=O)NCC2(N3CCCCC3)CCCCC2)o1` the value was inactive: -0.573%; for `Cc1ccc(NC2(C#N)CCN(Cc3ccccc3)CC2)cc1`, inactive: 0.254%. For `CC(=O)N(c1ccccc1)C1CCNCC1` the value was inactive: 1.22%; for `CCC(c1nnnn1C1CCCCC1)N1CCC(n2c(=O)[nH]c3ccccc32)CC1` (centres undefined), inactive: 1.05%; for `COc1cc(OC)cc(C(=O)NCC2(N3CCCCC3)CCCCC2)c1`, inactive: -0.137%. Turning to `O=C(NCC1(N2CCCCC2)CCCCC1)c1ccco1`, the activation was inactive: 0.1%. Turning to `CN(C)c1ccc(C(=O)NCC2(N3CCCCC3)CCCCC2)cc1`, the activation was inactive: -1.74%. As for `Cn1c(=O)[nH]cc(N(CCCl)CCCl)c1=O`, the activation is inactive: -0.481%. For `Cc1ccccc1NC1(C#N)CCN(Cc2ccccc2)CC1` the value was inactive: -0.0215%; for `COc1ccc(C(c2nnnn2C2CCCCC2)N2CCC(n3c(=O)[nH]c4ccccc43)CC2)cc1` (centres undefined), inactive: -0.071%; for `CC(C)(C)OC(=O)N1CCC(Nc2ccccc2)CC1`, inactive: -1.62%.

Take `NN(c1ccccc1)C1CCN(CCc2ccccc2)CC1`: the activation is inactive: 11.1%.

As for `O=C(O)C1(Nc2ccccc2)CCN(Cc2ccccc2)CC1`, the activation was inactive: -0.0415%. For `O=c1[nH]c2ccccc2n1C1CCN(C(c2cc3ccccc3o2)c2nnnn2C2CCCC2)CC1` (centres undefined) the value was inactive: 0.051%; for `CCCOc1ccc(C(=O)NCC2(N(C)C)CCCCC2)cc1`, inactive: 0.165%. Consider `COc1cccc(C(=O)N(c2cc(C)cc(C)c2)C2CCN(C(=O)OC(C)(C)C)CC2)c1`, for which the activation is inactive: -0.0695%. Under `COc1cccc(C(c2nnnn2C2CCCC2)N2CCC(n3c(=O)[nH]c4ccccc43)CC2)c1OC` (centres undefined) stands inactive: -1.62%.

The values are drawn from PubChem BioAssay AID686992 (Broad Institute, 2013).
